The text below walks through data of patent US20200330484A1, “STEROIDAL COMPOUNDS FOR TREATMENT OF MENTAL AND NEUROLOGICAL DISORDERS” (USTAV ORGANICKE CHEMIE A BIOCHEMIE AV CR, V.V.I., priority 2017, published 2020).

Amino acid sequences for entries named in this document (tags omitted). Residues count along the entry.
UniProt Q13224, 27-1484 W607C: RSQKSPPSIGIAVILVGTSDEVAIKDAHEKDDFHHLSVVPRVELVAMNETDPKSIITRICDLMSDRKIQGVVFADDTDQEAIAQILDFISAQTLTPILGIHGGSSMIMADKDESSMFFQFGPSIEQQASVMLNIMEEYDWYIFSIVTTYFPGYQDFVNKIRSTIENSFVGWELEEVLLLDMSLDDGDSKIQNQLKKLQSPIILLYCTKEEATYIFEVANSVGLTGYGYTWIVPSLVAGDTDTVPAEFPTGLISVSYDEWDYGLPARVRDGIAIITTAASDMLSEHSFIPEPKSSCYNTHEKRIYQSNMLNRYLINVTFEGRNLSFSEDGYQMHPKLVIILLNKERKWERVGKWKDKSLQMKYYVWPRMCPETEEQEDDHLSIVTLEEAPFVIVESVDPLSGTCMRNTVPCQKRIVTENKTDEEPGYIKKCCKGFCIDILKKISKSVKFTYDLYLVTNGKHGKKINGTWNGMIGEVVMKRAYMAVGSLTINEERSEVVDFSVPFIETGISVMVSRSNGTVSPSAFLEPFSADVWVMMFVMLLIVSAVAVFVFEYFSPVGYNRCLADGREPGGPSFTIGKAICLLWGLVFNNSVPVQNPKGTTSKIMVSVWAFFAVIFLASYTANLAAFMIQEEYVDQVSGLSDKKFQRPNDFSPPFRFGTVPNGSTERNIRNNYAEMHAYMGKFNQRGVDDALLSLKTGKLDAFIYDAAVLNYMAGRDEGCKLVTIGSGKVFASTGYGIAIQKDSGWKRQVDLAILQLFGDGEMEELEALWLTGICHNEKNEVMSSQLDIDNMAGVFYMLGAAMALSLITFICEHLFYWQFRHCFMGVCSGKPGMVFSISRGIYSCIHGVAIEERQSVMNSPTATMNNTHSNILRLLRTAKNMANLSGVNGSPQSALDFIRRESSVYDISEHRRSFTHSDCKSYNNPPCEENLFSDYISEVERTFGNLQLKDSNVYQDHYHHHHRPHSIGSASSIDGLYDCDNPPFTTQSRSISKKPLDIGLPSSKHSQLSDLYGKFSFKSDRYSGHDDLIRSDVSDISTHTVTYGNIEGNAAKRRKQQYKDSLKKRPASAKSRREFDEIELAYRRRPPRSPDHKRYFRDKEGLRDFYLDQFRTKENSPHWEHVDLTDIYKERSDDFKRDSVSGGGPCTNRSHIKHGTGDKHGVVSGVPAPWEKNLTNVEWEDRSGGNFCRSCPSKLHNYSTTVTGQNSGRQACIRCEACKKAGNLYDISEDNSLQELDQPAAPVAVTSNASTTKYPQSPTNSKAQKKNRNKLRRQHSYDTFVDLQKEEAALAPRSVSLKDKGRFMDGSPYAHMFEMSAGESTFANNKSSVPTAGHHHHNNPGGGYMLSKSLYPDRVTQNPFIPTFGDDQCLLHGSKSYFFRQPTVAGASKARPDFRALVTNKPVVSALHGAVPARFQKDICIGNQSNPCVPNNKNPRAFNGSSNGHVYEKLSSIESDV

The target in the experiment is T1, hGluN1/hGluN2B(W607C) receptors (Homo sapiens, UniProt Q05586+Q13224, W607C).
T1 construct: The amino acids are numbered on the basis of the full-length protein, including the signal peptide; expressed in transfected cells; host or cells: HEK293T
The experiment is described as follows: Whole-cell patch clamp, steroid potentiation of responses tonically activated by low concentration of glutamate. To be noted: HEK293T, mean ± SEM. The format is cell-based. How it is done:
Human embryonic kidney-293T (HEK293T) cells were used for transfection of human genes encoding for NMDA receptor subunits: hGluN1 (GenBank, accession number NP_015566) and hGluN2B (GenBank, accession number NP_000825). Equal amounts ([…]) of DNA encoding for GluN1 and GluN2B were mixed with 0.9 μl Matra-A Reagent (IBA, Gottingen, Germany) and added to confluent HEK293T cells. After trypsinization, the cells were resuspended in Opti-MEM I (ThermoFisher Scientific, Paisley, UK; Cat. #31985062) containing 1% fetal bovine serum supplemented with 15 mmol·l^−1 MgCl2, 1 mmol·l^−1 D,L-2-amino-5-phosphonopentanoic acid (D,L-AP5), and 1 μmol.l^−1 ketamine.
Mutations in the GluN2B subunit were made using the QuickChange Site-Directed Mutagenesis Kit (Agilent Technologies, Santa Clara, Calif., USA) according to the manufacturer's instructions. Mutated cDNA was transformed into ultra-competent XL1Gold E. coli cells, multiplied, positive clones were selected, and the isolated plasmide DNA was verified by sequencing (SEQme s.r.o., Dobris, Czechia, or GATC Biotech AG, Constance, Germany) All mutations were verified by DNA sequencing. Transfected HEK293T cells were identified by GFP epifluorescence. The amino acids are numbered on the basis of the full-length protein, including the signal peptide.
Experiments were performed 12-36 h after the end of transfection on cultured HEK293T cells transfected with vectors containing hGluN1/hGluN2B/GFP. Whole-cell voltage clamp current recordings were performed at room temperature (21-25° C.) at a holding potential of −60 mV using a patch-clamp amplifier (Axopatch 200B; Molecular Devices, Sunnyvale, Calif., USA) after a capacitance and series resistance (<10 MΩ) compensation of 80-90%. Data were collected (low-pass filtered at 2 kHz and sampled at 10 kHz) and analyzed using pClamp 10 (Molecular Devices). […]

On to `C[C@@]12CCC[C@H]1[C@@H]1CC=C3C[C@@H](OC(=O)CCC(=O)O)CC[C@]3(C)[C@H]1CC2` [AE-hSuc, androst-5-en-3β-yl hemisuccinate], for which, under “AE-hSuc 30 μmol · l^−1”, the “Potentiating effect (%)” value is listed as 406 ± 49 (8)^††; %.
Turning to 20-oxo-pregn-5-en-3β-yl sulfate [PE-S], the “Potentiating effect (%)” value (PE-S 100 μmol · l^−1) is 73 ± 16 (8)^†; %.
For the compound `CC(=O)[C@H]1CC[C@H]2[C@@H]3CC[C@@H]4CC(=CC=CC(=O)O)CC[C@]4(C)[C@H]3CC[C@]12C` [PA-But, 20-oxo-5β-pregnan-3-ylidene-4′-but-2-enoic acid], under “PA-But 15 μmol · l^−1”, the “Potentiating effect (%)” value is 160 ± 24 (3)^††; %.
